Laboratory results reported in US20080004302A1, “Novel Compounds” (ASTRAZENECA AB, priority 2006, published 2008).

Chains of the proteins cited; added tags and fusions are not shown. Residues count along the entry.
UniProt P08069, 31-1367: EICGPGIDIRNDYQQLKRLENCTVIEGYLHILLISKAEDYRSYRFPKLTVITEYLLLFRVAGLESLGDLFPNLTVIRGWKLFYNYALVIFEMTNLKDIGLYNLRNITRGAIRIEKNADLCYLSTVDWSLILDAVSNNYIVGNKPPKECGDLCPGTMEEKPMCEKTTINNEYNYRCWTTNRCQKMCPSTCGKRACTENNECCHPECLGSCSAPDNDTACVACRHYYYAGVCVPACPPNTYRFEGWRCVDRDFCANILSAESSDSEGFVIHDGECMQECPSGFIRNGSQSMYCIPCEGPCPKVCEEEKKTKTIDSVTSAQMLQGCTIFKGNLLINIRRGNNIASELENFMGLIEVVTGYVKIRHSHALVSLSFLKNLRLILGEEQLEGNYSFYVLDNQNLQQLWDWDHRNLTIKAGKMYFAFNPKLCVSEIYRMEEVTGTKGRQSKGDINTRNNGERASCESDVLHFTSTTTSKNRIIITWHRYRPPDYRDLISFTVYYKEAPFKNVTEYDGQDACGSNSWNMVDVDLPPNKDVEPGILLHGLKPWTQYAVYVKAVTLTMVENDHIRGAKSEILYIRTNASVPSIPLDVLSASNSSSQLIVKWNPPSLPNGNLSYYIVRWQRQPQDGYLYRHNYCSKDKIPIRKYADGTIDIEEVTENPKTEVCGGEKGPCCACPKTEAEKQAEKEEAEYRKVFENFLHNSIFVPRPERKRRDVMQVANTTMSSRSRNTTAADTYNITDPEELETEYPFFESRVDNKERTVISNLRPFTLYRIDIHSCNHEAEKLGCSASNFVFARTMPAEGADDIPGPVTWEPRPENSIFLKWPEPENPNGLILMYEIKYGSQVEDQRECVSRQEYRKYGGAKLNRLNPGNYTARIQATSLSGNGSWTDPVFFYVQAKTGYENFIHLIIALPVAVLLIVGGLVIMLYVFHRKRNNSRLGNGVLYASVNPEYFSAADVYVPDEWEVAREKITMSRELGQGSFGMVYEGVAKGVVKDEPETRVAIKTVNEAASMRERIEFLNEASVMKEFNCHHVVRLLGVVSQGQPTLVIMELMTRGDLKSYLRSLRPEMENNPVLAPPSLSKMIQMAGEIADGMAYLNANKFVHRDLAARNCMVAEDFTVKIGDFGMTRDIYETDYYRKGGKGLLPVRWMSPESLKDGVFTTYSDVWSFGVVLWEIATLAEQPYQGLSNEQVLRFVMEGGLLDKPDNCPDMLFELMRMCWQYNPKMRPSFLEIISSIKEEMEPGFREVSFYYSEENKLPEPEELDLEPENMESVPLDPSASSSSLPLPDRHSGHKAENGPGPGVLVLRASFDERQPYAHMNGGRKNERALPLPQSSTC

Biological target: T1, human IGF1R (Homo sapiens, UniProt P08069)
T1 construct: expressed in transfected cells; host or cells: R+ cells (R- mouse fibroblasts transfected with human IGF1R)
Assay: Inhibition of insulin-like growth factor-1 receptor phosphorylation in R+ cells
Assay type: cell-based
Experimental: This immunofluorescence end point cell assay measures the ability of a test compound to reduce the measured levels of IGF1R phosphorylation after IGF1 stimulation in R^+ cells. […] were derived by transfection of R^− mouse fibroblast cells with human IGF1R.
(+5% CO2) incubator for 30 minutes.
Following the compound treatment, the R^+ cells were stimulated with a final concentration of 30 nM IGF1 (Gropep 1M001) for 20 minutes at 37° C. […] Plates were incubated for 1 hour at room temperature. […] Additionally, in-house antibodies raised against phospho […] were also used at a suitable titre determined for each batch.
The plates were incubated at room temperature for one hour. […]
The Green Fluorescent phospho IGF1R -associated signal in each well was measured using an Acumen Explorer HTS Reader (TTP Labtech Ltd., Cambridge). […] The instrument is a laser-scanning fluorescence microplate cytometer, which samples the well at regular intervals and uses threshold algorithms to identify all fluorescent intensities above the solution background without the need to generate and analyse an image. These fluorescent objects can be quantified and provide a measure of the phospho IGF1R levels in cells. Fluorescence dose response data obtained with each compound was exported into a suitable software package (such as Origin) to perform curve fitting analysis. […]

`COCCCc1cc(Nc2ccnc(NCc3cc(C)no3)n2)n[nH]1` [Example 17, N′-[5-(3-methoxypropyl)-2H-pyrazol-3-yl]-N-[(3-methylisoxazol-5-yl)methyl]pyrimidine-2,4-diamine] was tested, and the IC50 was over 10 µM.
